Experimental findings from patent US8829193B2, “PIM kinase inhibitors and methods of their use” (Novartis AG, priority 2008, dated 2014) are described below.

Protein sequences, listed by entry. Tags and fused reporters are not part of them.
UniProt P11309, whole entry: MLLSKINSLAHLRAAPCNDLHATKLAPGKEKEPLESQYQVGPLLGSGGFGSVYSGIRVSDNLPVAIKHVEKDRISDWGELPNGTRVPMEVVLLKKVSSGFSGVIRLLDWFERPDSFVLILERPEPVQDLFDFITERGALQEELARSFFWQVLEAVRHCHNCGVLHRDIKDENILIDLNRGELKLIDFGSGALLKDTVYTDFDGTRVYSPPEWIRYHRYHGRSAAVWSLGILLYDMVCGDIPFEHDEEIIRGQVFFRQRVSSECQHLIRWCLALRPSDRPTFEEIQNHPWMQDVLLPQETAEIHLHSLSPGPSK

For the assay, the target named is Pim1 kinase (Homo sapiens (Human), UniProt P11309). Briefly: Pim1 ATP depletion assay. As to conditions: 20 μM ATP, 40 μM BAD peptide, 2.5 nM PIM1. The class given is biochemical. On the procedure:
The activity of PIM1 is measured using a luciferase-luciferin based ATP detection reagent to quantify ATP depletion resulting from kinase-catalyzed phosphoryl transfer to a peptide substrate. Compounds to be tested are dissolved in 100% DMSO and directly distributed into white 384-well plates at 0.5 μl per well. […] After 15 minutes, 10 μl of 40 μM ATP in assay buffer is added. Final assay concentrations are 2.5 nM PIM1, 20 μM ATP, 40 μM BAD peptide and 2.5% DMSO. The reaction is performed until approximately 50% of the ATP is depleted, then stopped with the addition of 20 μl KinaseGlo Plus (Promega Corporation) solution. The stopped reaction is incubated for 10 minutes and the remaining ATP detected via luminescence on the Victor2 (Perkin Elmer).

Take `C[C@H]1C[C@@H](c2ccncc2NC(=O)c2csc(-c3c(F)cccc3F)n2)C[C@@H](N)[C@H]1F` (racemic) [Example 58, N-(4-((+/−)-3-amino-4-fluoro-5-methylcyclohexyl)pyridin-3-yl)-2-(2,6-difluorophenyl)thiazole-4-carboxamide]: the concentration for half-maximal inhibition (IC50) was determined as 4 nM.

By IC50 is commonly meant the concentration that gives 50% inhibition.
